# pKi: −log10 of the molar value.
# The chains behind the UniProt entries cited, without tags or fusion partners.
# UniProt P20272, whole entry: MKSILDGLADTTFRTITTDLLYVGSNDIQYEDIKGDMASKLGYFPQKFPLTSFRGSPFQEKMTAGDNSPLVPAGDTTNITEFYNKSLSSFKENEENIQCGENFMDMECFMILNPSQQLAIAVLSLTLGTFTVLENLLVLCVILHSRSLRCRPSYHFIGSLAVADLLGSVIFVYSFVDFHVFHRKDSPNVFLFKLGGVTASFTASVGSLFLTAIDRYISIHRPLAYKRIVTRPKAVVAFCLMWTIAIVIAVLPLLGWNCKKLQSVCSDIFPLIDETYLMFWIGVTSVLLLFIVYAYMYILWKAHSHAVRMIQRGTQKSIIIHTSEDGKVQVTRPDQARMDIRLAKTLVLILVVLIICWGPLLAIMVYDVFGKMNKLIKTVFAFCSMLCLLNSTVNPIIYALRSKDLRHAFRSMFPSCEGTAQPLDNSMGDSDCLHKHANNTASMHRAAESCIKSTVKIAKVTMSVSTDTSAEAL
# Target: Cannabinoid receptor 1 (Rattus norvegicus, UniProt P20272)
# Test: Displacement of [3H]-HU-243 from CB1 receptor in Sabra rat brain synaptosomes after 90 mins
# Format: subcellular
structure (smiles),measurement,value
C=C(C)[C@@H]1CCC(C)=C[C@H]1c1c(O)cc(CCCCC)cc1O [CANNABIDIOL],pKi,< 5.00

# Reference: ChEMBL document CHEMBL3808335, “Discovery of KLS-13019, a Cannabidiol-Derived Neuroprotective Agent, with Improved Potency, Safety, and Permeability” (ACS Med Chem Lett, 2016)
